The subject of assay [1] is BT474 (HER2+ human breast carcinoma) cell line. Kind of assay: Cell proliferation assay (ATPLite), BT474. In kind it is cell-based. As to conditions: BT474 cells, 3 days, ATP level; relative to each other and to parent trastuzumab antibody.
Another assay concerns BT474 cell xenograft. Kind of assay: BT474 cell xenograft model. In kind it is in vivo, mice (Taconic C.B-17 scid). As to conditions: once intravenously 1 mg/Kg, control HB121 plus free MMAF or T4.
The subject of assay [2] is HER2-positive tumor cells. Kind of assay: Cytotoxicity of trastuzumab ADCs compared to trastuzumab, HER2-positive tumor cells. In kind it is cell-based.

Where only a bound is given, the exact number is not on record here.

Take trastuzumab-MC-T4: the “potency for inhibition of tumor cell growth” value in assay [1] was “approximately equipotent and considerably more potent than the parent trastuzumab antibody”. In the assay with BT474 cell xenograft, the “TGI compared to the control” value is given as “significant TGI compared to the control”.
Regarding trastuzumab-dTSPEG-T4, the “potency for inhibition of tumor cell growth” value in assay [1] was “approximately equipotent and considerably more potent than the parent trastuzumab antibody”. In the assay with BT474 cell xenograft, the “TGI compared to the control” value is “significant TGI compared to the control”.
Consider “trastuzumab: recombinant humanized monoclonal anti-HER2 antibody”, for which the IC50 in assay [2] was more than 500 nM. Also, the “TGI compared to the control” value in the assay with BT474 cell xenograft is given as “significant TGI compared to the control”.

Values taken from US20200392108A1, “ANTIBODY-DRUG CONJUGATES AND RELATED COMPOUNDS, COMPOSITIONS AND METHODS” (Magenta Therapeutics, Inc., priority 2011, published 2020).
